Values of other authors as cited in article PMC7573825, “Population Pharmacokinetics of Vancomycin in Kidney Transplant Recipients: Model Building and Parameter Optimization” (Frontiers in Pharmacology, 2020).

Design: method as in 3 sources, one per row (each row's own in cited_ref): ref Adane et al., 2015; Lin et al., 2016 ||| ref Ji et al., 2018 ||| ref Lin et al., 2019
Settings: first of two other studies, typical creatinine clearance rate nearly 60 ml/min; ref Ji et al., 2018; cited from earlier work

**Q.** Which “typical value of drug clearance” value does the source give for `CN[C@H](CC(C)C)C(=O)N[C@H]1C(=O)N[C@@H](CC(N)=O)C(=O)N[C@H]2C(=O)N[C@H]3C(=O)N[C@H](C(=O)N[C@H](C(=O)O)c4cc(O)cc(O)c4-c4cc3ccc4O)[C@H](O)c3ccc(c(Cl)c3)Oc3cc2cc(c3O[C@@H]2O[C@H](CO)[C@@H](O)[C@H](O)[C@H]2O[C@H]2C[C@](C)(N)[C@H](O)[C@H](C)O2)Oc2ccc(cc2Cl)[C@H]1O` [vancomycin] here?
**A.** 3.35 L/h
